High-throughput results as filed in PubChem BioAssay.
Only a selection was taken, and hits are over-represented in it overall.
GIV-Gai inh: GIV-Galpha-i interaction inhibition; AID 1224905; 210,000 tested, 0.42% active; Galpha-i3/FITC-GIV peptide fluorescence polarization, 90 min; stronger effect = lower value; scaled: aluminum fluoride 0%, vehicle 100%; percent of control (FP), % (concentration not given with the values);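 active = replicate mean at 85% of control or lower, very high polarization wells dropped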;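 also: wells of about 15 µL received 100 nL stock; the first replicate is given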
HCMV NEC inh: inhibitors of HCMV UL50-UL53 nuclear egress complex interaction; HTRF UL50-UL53 interaction, normalized percent inhibition; inhibition, % (test concentration not listed); AID 1918969; 190,000 compounds, 0.15% hits; in the data active = inhibition above about 27%, passing the limit was not always enough
GIV-Gai FP conf: GIV-Galpha-i3 inhibition, FP confirmation; shares compounds with GIV-Gai inh; FITC-GIV peptide binding to Galphai3, fluorescence polarization; stronger effect = lower value; fluorescence polarization, mP at 100 µM; 580 compounds, 38% hits; AID 1259350;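 active = inhibition score of 15 or more, meaning 100 minus mean polarization as percent of control over three replicates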
GIV-Gai AS conf: confirmation of inhibitors of GIV binding to human Galpha-i3. shares compounds with GIV-Gai inh. AlphaScreen Galphai3-GIV binding, purified proteins, 90 min; stronger effect = lower value. AlphaScreen counts at 100 µM. 580 compounds, 39% hits;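 active = inhibition score at or above a set limit, where the score is 100 minus the three-replicate mean percent of control signal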
* = called active by the depositor; / = not tested or not shown; ! = not active in a repeat.

nr	mol	GIV-Gai inh	HCMV NEC inh
1	O=C(c1ccccc1)c1cccc2c1NCC2	81*	-11
2	Cc1[nH]c(=O)[nH]c(=O)c1S(=O)(=O)NCCO	103	-10
3	O=c1[nH]c(NCCO)c(I)c(=O)[nH]1	57*	67*
4	CCCCCCC(=O)Nc1ccc2nc3c(=O)[nH]c(=O)[nH]c3nc2c1	83*	-124
5	CCCC(=O)Nc1ccc2[nH]c(=O)[nH]c2c1	/	-2
6	CC(=O)Nc1ccc2sc(C)nc2c1	101	-18
7	CC(=O)Nc1ccc2nc3c(=O)[nH]c(=O)[nH]c3nc2c1	66*	-146
8	CCCCCCC1Oc2ccc([N+](=O)[O-])cc2C2OC(c3ccccc3)(c3ccccc3)c3ccccc3N12 (stereo not drawn)	101	/
9	CN1CCN(c2nc(-c3ccc(Br)cc3)nc3ccccc23)CC1	105	/
10	COc1ccccc1NC(=O)c1nn(C)c2c1CSc1ccccc1-2	101	-12
11	Cc1c(OCc2ccc(F)cc2)ccc2c3c(c(=O)oc12)CCCC3	/	-8
12	COc1ccccc1C(C1C(=O)N(c2ccccc2)N=C1C)C1C(=O)N(c2ccccc2)N=C1C (stereo not drawn)	114	/
13	COc1ccc(C(C2C(=O)N(c3ccccc3)N=C2C)C2C(=O)N(c3ccccc3)N=C2C)cc1OC (stereo not drawn)	77*	/
14	CCOc1cccc2cc(C(=O)Nc3cc(OC)ccc3OC)c(=Nc3ccc(C(=O)O)cc3)oc12	111	/
15	COc1ccc2nc(NS(=O)(=O)c3ccc(C)cc3)c(Nc3cc(Cl)ccc3OC)nc2c1	230	-10

nr	GIV-Gai FP conf	GIV-Gai AS conf
1	65	29262
2	/	/
3	43*	2885*
4	44*	16182*
5	/	/
6	/	/
7	58*	5170*
8	/	/
9	/	/
10	/	/
11	/	/
12	/	/
13	62	15958*
14	/	/
15	/	/

Random excerpt: 4 compounds from above, in no set order.
nr	mol	GIV-Gai inh	HCMV NEC inh
12	COc1ccccc1C(C1C(=O)N(c2ccccc2)N=C1C)C1C(=O)N(c2ccccc2)N=C1C (stereo not drawn)	114	/
6	CC(=O)Nc1ccc2sc(C)nc2c1	101	-18
9	CN1CCN(c2nc(-c3ccc(Br)cc3)nc3ccccc23)CC1	105	/
8	CCCCCCC1Oc2ccc([N+](=O)[O-])cc2C2OC(c3ccccc3)(c3ccccc3)c3ccccc3N12 (stereo not drawn)	101	/

nr	GIV-Gai FP conf	GIV-Gai AS conf
12	/	/
6	/	/
9	/	/
8	/	/

Next results:
nr	mol	GIV-Gai inh	HCMV NEC inh
16	COc1ccc(Nc2nc3ccccc3nc2NS(=O)(=O)c2ccc(C)cc2)c(OC)c1	39*	-21
17	CCOc1ccc(CCCN)cc1OCC	102	-13
18	O=c1ccc2nncn2[nH]1	110	-2
19	COC(=O)c1c(-c2ccc(Cl)cc2)noc1N1CCN(c2ccccc2F)CC1	71*!	-2
20	COC(=O)c1c(-c2ccc(Cl)cc2)noc1N1CCN(C)CC1	99	-27
21	Cc1nnc(NC2CCCC2)s1	/	4
22	CCOC(=O)C1=C(C)N=c2s/c(=C\c3cc([N+](=O)[O-])ccc3N3CCOCC3)c(=O)n2C1c1ccc(F)cc1 (stereo not drawn)	74*	-18
23	CCOC(=O)C1=C(C)N=c2s/c(=C\c3cc([N+](=O)[O-])ccc3N3CCOCC3)c(=O)n2C1c1ccc(OC)cc1 (stereo not drawn)	104	-3
24	COCCn1cnc2c(sc3nc4c(cc32)COC(C)(C)C4)c1=O	98	-2
25	CCc1ccccc1N1C(=O)N(Cc2cc(=O)n3ccccc3n2)c2ccccc2S1(=O)=O	87	/
26	Cc1cccc(N2C(=O)N(Cc3cc(=O)n4ccccc4n3)c3ccccc3S2(=O)=O)c1	102	/
27	CCOc1ccc(N2C(=O)/C(=C/c3ccc(OCC(=O)O)c(OC)c3)C(=O)NC2=S)cc1	100	-26
28	N#CC(C(=O)NCc1ccccc1)c1nc2ccccc2nc1N1CCCC1 (stereo not drawn)	/	-17
29	N#CC(C(=O)NCCc1ccccc1)c1nc2ccccc2nc1N1CCOCC1 (stereo not drawn)	86	-10
30	Cc1nn(-c2ccccc2)nc1C(=O)OCc1ccc(C#N)cc1	/	4

nr	GIV-Gai FP conf	GIV-Gai AS conf
16	81	33344
17	/	/
18	/	/
19	64	42746
20	/	/
21	/	/
22	64	55281
23	/	/
24	/	/
25	82	31171
26	/	/
27	/	/
28	/	/
29	76	31052
30	/	/

(list continues)
nr	mol	GIV-Gai inh	HCMV NEC inh
31	Cc1ccccc1NC(=O)c1cc2ccccc2o1	100	/
32	Cc1ccccc1NC(=O)c1sc2nc(-c3cc4ccccc4oc3=O)[nH]c(=O)c2c1C	71*	6
33	O=C(c1ccc(-n2c(=S)[nH]c3ccccc3c2=O)cc1)N1CCN(Cc2ccc3c(c2)OCO3)CC1	113	/
34	O=C(Cc1ccccc1F)Oc1ccc(-c2nnco2)cc1	/	-12
35	Cc1cccc(NC(=O)c2cc(S(=O)(=O)NC3CCCCC3)ccc2F)c1C	109	/
36	COc1ccc(Cl)cc1NC(=O)N1CCN(c2nc3ccccc3n3cccc23)CC1	83*	/
37	COc1ccc(OC)c(NC(=O)N2CCN(c3nc4ccccc4n4cccc34)CC2)c1	98	/
38	CCC(=O)Nc1cc2nc3[nH]c(=O)n(C)c(=O)c3nc2cc1C	21*	-162
39	CCCCCCC(=O)Nc1cc2nc3[nH]c(=O)n(C)c(=O)c3nc2cc1C	100	-64
40	O=C(O)c1cccc(S(=O)(=O)NC2CC2)c1	/	-30
41	Cc1ccc2cc3c(nc2c1)N(C(=O)CN1C(=O)c2ccccc2C1=O)CC3	107	2
42	Cc1nn(-c2ccc3nncn3n2)c(C)c1CCC(=O)Nc1ccc(F)c(Cl)c1	89	/
43	CC(=O)Nc1ccc(NC(=O)CCc2c(C)nn(-c3ccc4nncn4n3)c2C)cc1	103	/
44	CCOc1ccc(C(c2c(C)[nH]n(-c3ccccc3)c2=O)c2c(C)[nH]n(-c3ccccc3)c2=O)cc1	101	/
45	CCCCCCOc1ccc(C(c2c(C)[nH]n(-c3ccccc3)c2=O)c2c(C)[nH]n(-c3ccccc3)c2=O)cc1	62*	/

nr	GIV-Gai FP conf	GIV-Gai AS conf
31	/	/
32	38*	23058
33	/	/
34	/	/
35	/	/
36	77	24336
37	/	/
38	46*	34033
39	/	/
40	/	/
41	/	/
42	78	27312
43	/	/
44	/	/
45	67	11116*

The list goes on:
nr	mol	GIV-Gai inh	HCMV NEC inh
46	Cc1[nH]n(-c2ccccc2)c(=O)c1C(c1cc(Br)ccc1O)c1c(C)[nH]n(-c2ccccc2)c1=O	106	/
47	Cc1[nH]n(-c2ccccc2)c(=O)c1C(c1cc([N+](=O)[O-])ccc1O)c1c(C)[nH]n(-c2ccccc2)c1=O	76*	/
48	Cc1[nH]n(-c2ccccc2)c(=O)c1C(c1ccc(C#N)cc1)c1c(C)[nH]n(-c2ccccc2)c1=O	71*	/
49	Cc1ccc(COc2ccc(C(c3c(C)[nH]n(-c4ccccc4)c3=O)c3c(C)[nH]n(-c4ccccc4)c3=O)cc2)cc1	115	/
50	Cc1ccc(NC(=O)CNC(=O)Cn2cnc3ccccc3c2=O)cc1F	101	2
51	CN(C(=O)Cn1ncc2c(=O)oc3ccccc3c21)c1ccccc1	99	/
52	O=C(Nc1cccc(F)c1)C1Nc2cc(F)ccc2S(=O)(=O)N1 (stereo not drawn)	103	1
53	CCc1ccccc1NS(=O)(=O)c1ccc2[nH]cc(C(=O)NCc3cccnc3)c(=O)c2c1	96	3
54	Oc1ccc2ccccc2c1C=NCc1cn2ccsc2n1	/	20
55	Oc1ccc2ccccc2c1C=NCc1cccnc1	5.4*	-8
56	COc1ccc(C)cc1NC(=O)Nc1cccc(OCc2cc(=O)n3ccc(C)cc3n2)c1	93	/
57	CCOC(=O)c1ccc(NC(=O)Nc2cccc(OCc3cc(=O)n4ccc(C)cc4n3)c2)cc1	85*	/
58	CCc1ccc(NS(=O)(=O)c2c(C)nc3sc4cc(C)ccc4n3c2=O)cc1	103	-30
59	COc1cccc(CNC(=O)C2CCCN2c2nnc(N3CCCCC3=O)s2)c1 (stereo not drawn)	87	-12
60	COc1cccc(CNC(=O)C2CCCN(c3nnc(-n4c(C)ccc4C)s3)C2)c1 (stereo not drawn)	105	-7
61	CCOC(=O)c1cccc2ncccc12	104	-13

nr	GIV-Gai FP conf	GIV-Gai AS conf
46	/	/
47	64	23681*
48	66	33414
49	/	/
50	/	/
51	/	/
52	/	/
53	/	/
54	/	/
55	24*	5898*
56	/	/
57	78	34616
58	/	/
59	79	26734
60	/	/
61	/	/
